DRD3 antagonist – D3 dopamine receptor (human) antagonism. P35462. D3R cells, DiscoveRx beta-arrestin luminescence, antagonist mode; active compounds read low. max response, negative = inhibition, %. 2.5% of 360,000 active; in the data active means max response below about -50%; inconclusive means no clear call, values can overlap the other calls
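Cells plated overnight at 1500 cells/well, then exposed to library compounds with dopamine controls for 90 minutes at 37 degrees C. DiscoveRx reagent added for 30–60 minutes at room temperature; luminescence read, quantitative HTS format.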
D3 ag – agonists of human D3 dopamine receptor | D3R DiscoveRx beta-arrestin cells, luminescence, 90 min | max activation, % | 0.58% of 410,000 active; in the data active means max activation above about 30%
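Cells at 1500/well, incubated overnight, then treated with pinned compounds (dopamine as control) for 90 min at 37 degrees C. DiscoveRx reagent added for 30 - 60 minutes at room temperature; luminescence read.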
PTAP TSG101 blk – blocks PTAP/TSG101 interaction to inhibit HIV-1 budding | 340,000 tested, under 10 active | Potency, µM (doses to about 115 µM), hits mostly inhibitors | AID 493005 | Fluorescence polarization, FITC-PTAP peptide / Tsg101 binding | Q99816; active means well fitted inhibition curve with a large enough effect in the main read-out, with a control signal flat, not every such curve was filed as active; inconclusive means small, poorly fitted or top-dose-only effect, or effect the other way, or a change in a side signal; inactive means no such curve, though single readings can be large or run the other way
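FP read-out: FITC-PTAP peptide, 50 nM final, binding Tsg101 binding domain, 10 uM final; 20 min, r.t.; 10 mM HEPES pH 7.5, 0.15 M NaCl, 0.01% Tween 20, 3 mM EDTA, 0.1 mM TCEP.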
Rango-impB inh – Rango-importin beta binding inhibition | Q14974 | Rango CFP/YFP FRET sensor + importin beta, 45 min | Potency, µM (doses to about 92.2 µM) | 0.031% of 340,000 active | AID 540263; further: nearly all actives have a fitted effect of over 15% in size
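FRET biosensor (snurportin 1 IBB flanked by EYFP and cerulean), 50 nM, with compound 5 min, then 0.125 microM importin beta in PBS, 1 mM DTT, 0.02% Tween-20, 0.1% BSA. CFP/YFP ratio read after 45 min at room temperature; pre-read flags interference.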
Rango dissoc inh – inhibition of RanGTP-driven Rango-importin beta dissociation; Potency, µM (highest dose often 46.1 µM); Biochemical FRET Rango-importin beta, RanGTP-induced dissociation; O95149+P62826; 0.071% of 340,000 active; further: nearly all actives have a fitted effect of over 45% in size
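Rango (0.1 uM)–importin beta (0.25 uM) complex; RanGTP-RCC1 trigger; 45 min RT; CFP/YFP FRET read.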
MmCpn inh – M. maripaludis TRiC chaperonin inhibition; purified Mm-Cpn ATPase, ADP Transcreener TR-FRET; Potency, µM (series often up to 76.9 µM), hits mostly inhibitors; 0.031% of 330,000 active; AID 504842; active means well fitted inhibition curve with a large enough effect; inconclusive means small, poorly fitted or top-dose-only effect; further: nearly all actives have a fitted effect of over 80% in size
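Purified archaeal chaperonin (25 nM final) was preincubated with compound for 10 min at 37°C, then ATP (10 uM final) was added for 30 min at 37°C in Tris pH 7.4/KCl/MgCl2/DTT buffer. ADP was quantified by HTRF Transcreener TR-FRET.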
Of the large screens only hits and unclear results are named; the others gave an inactive call. Sampled rows, rich in hits. Any-hit rate of the full collection: about 2.9%. Unless noted, the call rests on the fitted dose curve.

CC(C)CCNC(=O)c1ccc2c(c1)NC(=O)C(CS(=O)(=O)Cc1cccc(Br)c1)N2 (stereo not given)	none (no result: DRD3 antagonist, PTAP TSG101 blk, Rango-impB inh, Rango dissoc inh, MmCpn inh)
NC(=O)c1ccc(N=C2C(=O)Nc3ccc([N+](=O)[O-])cc32)cc1	DRD3 antagonist -62
CC(=O)c1ccc(NC(=O)c2nc(-c3ccccc3)n(-c3ccccc3Cl)n2)cc1	none (no result: DRD3 antagonist, PTAP TSG101 blk, Rango-impB inh, Rango dissoc inh, MmCpn inh)
C=C1C(=O)C=C2CN(C(=O)c3ccccc3)[C@@](Cc3ccc(F)cc3)(C(=O)OC)[C@@H]12	DRD3 antagonist -99
C=C1C(=O)CC2=C1[C@](Cc1ccc(F)cc1)(C(=O)OC)N(C(=O)c1ccccc1)C2	none (no result: PTAP TSG101 blk, Rango-impB inh, Rango dissoc inh, MmCpn inh)
O=C1CCN(S(=O)(=O)c2ccccc2)CCN1CCOCc1cccc(F)c1	none
Cc1cccc(NC(=O)Cn2nnc(-c3nc(-c4ccncc4)no3)c2N)c1	none (no result: DRD3 antagonist, PTAP TSG101 blk, Rango-impB inh, Rango dissoc inh, MmCpn inh)
O=C(NCc1cccs1)c1ccc(CSc2nc3ccncc3n2Cc2ccccc2F)cc1	none (no result: DRD3 antagonist, PTAP TSG101 blk, Rango-impB inh, Rango dissoc inh, MmCpn inh)
Nc1ncnc(Nc2ccc(Cl)cc2)n1	none (no result: DRD3 antagonist, PTAP TSG101 blk, Rango-impB inh, Rango dissoc inh, MmCpn inh)
COCC(C)NCc1ccccc1C (stereo not given)	Rango-impB inh 18µM
C=C(C)C(C)(C#CCN1CCCC1)OC(C)=O (stereo not given)	DRD3 antagonist -72
O=C(C(O)c1ccc(Br)cc1)N1CCC(Nc2ccc3[nH]ncc3c2)CC1 (stereo not given)	DRD3 antagonist -81 (no result: PTAP TSG101 blk, Rango-impB inh, Rango dissoc inh, MmCpn inh)
Cc1cc(=O)[nH]c(Nc2ccccc2C)n1	none
CC(=O)c1c(C)[nH]c(C(=O)NCCC2=CCCCC2)c1C	DRD3 antagonist -57
O=C(Cn1cc(S(=O)(=O)Cc2ccccc2Cl)c2ccccc21)Nc1ccc(F)cc1F	none (no result: DRD3 antagonist, PTAP TSG101 blk, Rango-impB inh, Rango dissoc inh, MmCpn inh)
COc1ccc(OCC(=O)c2c(O)c3ccccc3oc2=O)cc1	DRD3 antagonist -114, MmCpn inh inconclusive
CCOc1ccc(OCC(=O)c2c(O)c3ccccc3oc2=O)cc1	none
COc1ccc(C(=O)c2c(-c3ccc(OC)cc3)oc3ccccc23)cc1	DRD3 antagonist -63, MmCpn inh inconclusive
Cc1cccc(NS(=O)(=O)c2ccc3c(c2)CC(C)N3C(=O)C2CCC2)c1C (stereo not given)	none (no result: DRD3 antagonist, PTAP TSG101 blk, Rango-impB inh, Rango dissoc inh, MmCpn inh)
COc1ccc(N2CCN(Cc3cccn3-c3nnc(N4CCN(C5CCCCC5)CC4)s3)CC2)cc1	none (no result: DRD3 antagonist, PTAP TSG101 blk, Rango-impB inh, Rango dissoc inh, MmCpn inh)
Cc1scc(C(=O)Nn2cnnc2)c1-c1ccccc1	DRD3 antagonist -55 (no result: PTAP TSG101 blk)
CC(C)COc1ccc(C(=O)N2CCCCC2CCN2CCOCC2)cc1 (stereo not given)	none (no result: DRD3 antagonist, PTAP TSG101 blk, Rango-impB inh, Rango dissoc inh, MmCpn inh)
Fc1ccc(CN2CCN3CCCC3C2C2CCCCC2)cc1F (stereo not given)	DRD3 antagonist -78
CCCn1c2ccccc2c2cnn(CC(=O)NCCc3ccc(OCC)cc3)c(=O)c21	none (no result: DRD3 antagonist, PTAP TSG101 blk, Rango-impB inh, Rango dissoc inh, MmCpn inh)
CCN(CC)CCNC(=O)c1c(C)n(-c2ccccc2)c2cc(Br)c(OC)cc12	DRD3 antagonist -65
O=C(COC(=O)c1cc(-c2ccccc2)nc2c(Cl)cccc12)c1ccc(F)cc1	none (no result: DRD3 antagonist, PTAP TSG101 blk, Rango-impB inh, Rango dissoc inh, MmCpn inh)
CCOC(=O)C1(C)CCN1C(=O)c1cccc(Cl)c1 (stereo not given)	D3 ag 48 (no result: PTAP TSG101 blk, Rango-impB inh, Rango dissoc inh, MmCpn inh)
COc1cc(Nc2nc3c(S(=O)(=O)c4ccc(C)c(C)c4)nnn3c3ccsc23)cc(OC)c1	none (no result: DRD3 antagonist, PTAP TSG101 blk, Rango-impB inh, Rango dissoc inh, MmCpn inh)
CCOc1ccc(NC(=O)c2oc3ccccc3c2NC(=O)C(C)(C)C)cc1	none (no result: DRD3 antagonist, PTAP TSG101 blk, Rango-impB inh, Rango dissoc inh, MmCpn inh)
COc1ccccc1Cc1c(-c2cccc(Cl)c2)nc2ccc(Br)cn12	DRD3 antagonist -83 (no result: PTAP TSG101 blk, Rango-impB inh, Rango dissoc inh, MmCpn inh)
FC(F)(F)c1ccccc1Cc1c(-c2cccc(Br)c2)nc2ccc(Cl)cn12	none (no result: PTAP TSG101 blk, Rango-impB inh, Rango dissoc inh, MmCpn inh)
CCCc1nc2ccc(Br)cn2c1Cc1ccccc1OC	D3 ag 78 (no result: PTAP TSG101 blk, Rango-impB inh, Rango dissoc inh, MmCpn inh)
FC(F)(F)c1ccccc1Cc1c(-c2cccc(Cl)c2)nc2ccc(Cl)cn12	D3 ag 57 (no result: PTAP TSG101 blk, Rango-impB inh, Rango dissoc inh, MmCpn inh)
CC(C)(C)Cc1c(-c2cccc(Cl)c2)nc2ccc(Br)cn12	DRD3 antagonist -109 (no result: PTAP TSG101 blk, Rango-impB inh, Rango dissoc inh, MmCpn inh)
COc1ccc(-c2noc(-c3ccc(NCCc4ccccc4)c([N+](=O)[O-])c3)n2)cc1OC	none (no result: DRD3 antagonist, PTAP TSG101 blk, Rango-impB inh, Rango dissoc inh, MmCpn inh)
O=C(NCCN1CCCCC1)c1ccc(Cn2c(SCc3ccccc3)nc3cccnc32)cc1	none (no result: DRD3 antagonist, PTAP TSG101 blk, Rango-impB inh, Rango dissoc inh, MmCpn inh)
CCc1nc(C)cn1S(=O)(=O)c1ccc(Cl)c(Cl)c1OC	none (no result: DRD3 antagonist, PTAP TSG101 blk, Rango-impB inh, Rango dissoc inh, MmCpn inh)
COc1ccc2oc(=O)cc(CN3CCN(c4ccccc4F)CC3)c2c1	none (no result: DRD3 antagonist, PTAP TSG101 blk, Rango-impB inh, Rango dissoc inh, MmCpn inh)

High-throughput results (PubChem)
